Key:
[1] = molecular target: hD3 (Homo sapiens); assay: Affinity and intrinsic activity, Table 4; type: binding; conditions: high affinity agonist state, [3H]-agonist ligand
[2] = molecular target: hO3 Receptor (Homo sapiens); assay: biochemical; conditions: Ki (nM) ± S.D

Row | Ki [1] [nM] | Ki [2] [nM] | SMILES
1 | 30.9 | 30.9 ± 13.4 | CCCN1CCCC(c2cccc(O)c2)C1 (single isomer, unassigned; (-)) [(−)-3-PPP, (−)3-(3-hydroxyphenyl)-N-n-propylpiperidine]
2 | – | 66.4 ± 12.5 | CCCN1CCCC(c2cccc(O)c2)C1 (single isomer, unassigned; (+)) [(+)-3-PPP]

— patent publication US20010056101A1 (priority 1998, published 2001)
